US6462178B1, “G protein” (Yong Hou Wong, priority 1999, dated 2002)

Target: T1, melatonin Mel1c receptor (Xenopus laevis, UniProt P49219)
T1 construct: expressed in transfected cells; host or cells: COS-7
T1 sequence (P49219 1-420): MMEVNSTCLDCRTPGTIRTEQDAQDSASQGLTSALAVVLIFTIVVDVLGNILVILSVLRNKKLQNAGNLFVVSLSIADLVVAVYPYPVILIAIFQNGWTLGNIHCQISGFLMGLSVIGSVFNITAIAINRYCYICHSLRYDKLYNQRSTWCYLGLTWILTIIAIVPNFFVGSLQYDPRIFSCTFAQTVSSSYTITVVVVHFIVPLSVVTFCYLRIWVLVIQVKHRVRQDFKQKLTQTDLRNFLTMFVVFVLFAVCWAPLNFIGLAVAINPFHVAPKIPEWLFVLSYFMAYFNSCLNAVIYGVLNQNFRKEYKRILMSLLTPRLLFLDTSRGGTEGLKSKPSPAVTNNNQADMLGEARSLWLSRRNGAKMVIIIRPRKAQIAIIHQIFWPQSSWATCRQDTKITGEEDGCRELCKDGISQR
Experiment: IP accumulation, melatonin Mel1c receptor coexpressed with Gα subunit in COS-7
Format: cell-based
Settings: COS-7, receptor + Gα16; 1 μM 2-iodomelatonin

COc1ccc2[nH]c(I)c(CCNC(C)=O)c2c1 [2-iodomelatonin]
IP Formation Agonist: 16.1 ± 3.7
